Organism: Mus musculus
Assay: The maximal effect induced by an agonist expressed as percent inhibition of electrically induced twitches.
Format: functional
In short: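 Vas deferens from Swiss male mice (25–30 g), prepared per Hughes, in Mg2+-free Krebs (95% O2/5% CO2, pH 7.4) at 33 °C, 0.3 g resting tension. Field stimulation via platinum ring electrodes: supramaximal 1-ms pulses, 0.1 Hz. Isotonic twitch recording. After ~2 h equilibration, cumulative concentration–response curves in 0.5 log steps. Mean ± SEM of at least four experiments; pEC50 with 95% confidence limits.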

Q: Which Emax does the source give for CC(C)C[C@H](NC(=O)[C@H](CCCCN)NC(=O)[C@H](CCCNC(=N)N)NC(=O)[C@H](C)NC(=O)[C@H](CO)NC(=O)[C@H](CCCCN)NC(=O)[C@H](CCCNC(=N)N)NC(=O)[C@H](C)NC(=O)CNC(=O)[C@@H](NC(=O)[C@H](Cc1ccccc1)NC(=O)CNC(=O)CNC(=O)[C@@H](N)Cc1ccccc1)[C@@H](C)O)C(=O)N[C@@H](C)C(=O)N[C@@H](CC(N)=O)C(=O)N[C@@H](CCC(N)=O)C(N)=O [NOCICEPTIN-NH2] here?
A: -79
